According to US20230059898A1 (priority 2020, published 2023):

Tested on: biocontrol strain ST15
Assay type: cell-based, Bacillus altitudinis
Further: key: +: not sensitive; −: sensitive.

For Sodium bromate, the “chemical sensitivity of strain ST15” value was “+”.
